# Data: patent US8808664B2, “Lipidated glycoprotein particles and methods of use” (Ramot at Tel-Aviv University Ltd., priority 2004, dated 2014)
# Experiment: Efficiency of entrapment of drugs/bioactive agents in collagen disks or particles
# Assay type: physicochemical
# Protocol: Efficiency of entrapment of drugs/bioactive agents in the collagen disks or particles, and kinetics of drug efflux for small molecular weight drugs was determined utilizing absorption spectra (mostly in an ELISA plate reader), fluorescence emission spectra (mostly in a fluorescence plate reader), and HPLC. Half-life data was processed according to a theoretical framework previously developed for liposomes (Margalit et al., 1991), incorporated herein in its entirety) which yields the rate constant for drug efflux. Typical results of the efficiency of entrapment are listed in Tables 1 and 2, for the particles and disks, respectively.
substance,measurement,setting,value
Interferon alpha: the antiviral protein interferon 2α-(INFα),% Entrapment,Collagen Disks (1-20 mm in a diameter),93.6 ± 1.3%
same,% Entrapment,Collagen particles (0.5-10 μm in diameter),88.2 ± 5.1%
